This passage reports Ki results from EP0900207B1, “PYRAZINONE THROMBIN INHIBITORS” (MERCK & CO., INC., priority 1996, dated 1997).

Where only a bound is given, the exact number is not on record here.

The experiment has as its target human α-thrombin (Homo sapiens, UniProt P00734). Briefly: In vitro proteinase inhibition assay, human α-thrombin (p-nitroanilide or fluorogenic substrate hydrolysis). Particulars: inhibitory activity against human thrombin; 25°C, TRIS buffer pH 7.4. The procedure: Assays of human α-thrombin and human trypsin were performed by the methods substantially as described in Thrombosis Research, Issue No. 70, page 173 (1993) by S.D. Lewis et al.
The assays were carried out at 25°C in 0.05 M TRIS buffer pH 7.4, 0.15 M NaCl, 0.1% PEG. Trypsin assays also contained 1 mM CaCl2. In assays wherein rates of hydrolysis of a p-nitroanilide (pna) substrate were determined, a Thermomax 96-well plate reader was used was used to measure (at 405 nm) the time dependent appearance of p-nitroaniline. sar-PR-pna was used to assay human α-thrombin (Km=125 µM) and bovine trypsin (Km=125 µM). p-Nitroanilide substrate concentration was determined from measurements of absorbance at 342 nm using an extinction coefficient of 8270 cm^-1M^-1.
In certain studies with potent inhibitors (Ki < 10 nM) where the degree of inhibition of thrombin was high, a more sensitive activity assay was employed. In this assay the rate of thrombin catalyzed hydrolysis of the fluorogenic substrate Z-GPR-afc (Km=27 µM) was determined from the increase in fluorescence at 500 nm (excitation at 400 nm) associated with production of 7-amino-4-trifluoromethyl coumarin. Concentrations of stock solutions of Z-GPR-afc were determined from measurements of absorbance at 380 nm of the 7-amino-4-trifluoromethyl coumarin produced upon complete hydrolysis of an aliquot of the stock solution by thrombin.
Activity assays were performed by diluting a stock solution of substrate at least tenfold to a final concentration < 0.1 Km into a solution containing enzyme or enzyme equilibrated with inhibitor. Times required to achieve equilibration between enzyme and inhibitor were determined in control experiments. Initial velocities of product formation in the absence (Vo) or presence of inhibitor (Vi) were measured. […]
In the case of `CCNC(=O)COc1ccccc1CNC(=O)Cn1c(C)cnc(NCCc2ccccc2)c1=O`, the Ki was below 1 nM. The same measure for `Cc1nc(N)ccc1CNC(=O)Cn1c(C)cnc(NC(C)(C)Cc2ccccc2)c1=O`: above 1 nM. `CCNC(=O)COc1ccc(Cl)cc1CNC(=O)Cn1c(C)cnc(NC(C)(C)C)c1=O` registered an inhibition constant (Ki) above 1 nM.
